# Measurements taken from patent US20140274984A1, “ACID ADDITION SALTS OF 5ALPHA-HYDROXY-6BETA-[2-(1H-IMIDAZOL-4-YL)ETHYLAMINO]CHOLESTAN-3BETA-OL” (INSERM (INSTITUT NATIONAL DE LA SANTÉ ET DE LA RECHERE …, priority 2011, published 2014).
# Experiment: Water solubility at room temperature (shake 5 hours, filtered supernatant, HPLC with calibration curve)
# Format: physicochemical
# Conditions: shaken 5 hours
# Experimental: An adequate amount of each sample was taken. Water (50% v/v) was added to each sample, and the mixture was shaken at room temperature for 5 hours. The supernatant was filtered through a filter, and diluted with a mixed solution of water 0.1% TFA/acetonitrile as necessary to give a sample solution. The concentration (mg/ml) of the sample solution was measured by high performance liquid chromatography (HPLC) with a calibration curve method, and taken as the solubility in water at room temperature.
# HPLC Analysis Conditions:
# HPLC purifications and analyses were carried out using an LC200 series Perkin Elmer apparatus, and diode array UV detector, using an Ultrasep C18 RP 100 column from Bischoff Chromatography.
row,Solubility in water at room temperature,Substance
1,42 mg/mL,"5alpha-Hydroxy-6beta-[2-(1H-imidazol-4-yl)ethylamino]cholestan-3beta-ol, L-tartrate [Example 2]"
2,55 mg/mL,"5alpha-Hydroxy-6beta-[2-(1H-imidazol-4-yl)ethylamino]cholestan-3beta-ol, malonate [Example 9]"
3,65 mg/mL,"5alpha-Hydroxy-6beta-[2-(1H-imidazol-4-yl)ethylamino]cholestan-3beta-ol, L-Lactate [Example 16]"

row,Substance,Solubility in water at room temperature
1,"5alpha-Hydroxy-6beta-[2-(1H-imidazol-4-yl)ethylamino]cholestan-3beta-ol, benzene sulfonate [Example 6]",31.5 mg/mL
